As a reminder, the Ki is the dissociation constant of the complex between target and ligand, obtained from inhibition or displacement.

This assay has as its system octopamine-sensitive adenylate cyclase (firefly lantern octopamine receptor). Nature of the assay: Octopamine-sensitive adenylate cyclase activation, firefly light organ broken cell preparation. Particulars: Table 2, inhibitory properties at the octopamine receptor. It is filed as biochemical, firefly (Photinus pyralis).

SMILES strings stand for the structures.

Turning to `CN(CCCl)Cc1cc(Cl)c(N=C2NCCN2)c(Cl)c1`, the Ki amounted to 250 µM.

The values above are taken from US4902690A, “Pest controlling compositions” (The General Hospital Corporation, priority 1988, dated 1990).
